Here are results for one molecule from article PMC9301952 (ACS Omega, 2022).

Chains of the proteins cited; added tags and fusions are not shown.
UniProt P31652, whole entry: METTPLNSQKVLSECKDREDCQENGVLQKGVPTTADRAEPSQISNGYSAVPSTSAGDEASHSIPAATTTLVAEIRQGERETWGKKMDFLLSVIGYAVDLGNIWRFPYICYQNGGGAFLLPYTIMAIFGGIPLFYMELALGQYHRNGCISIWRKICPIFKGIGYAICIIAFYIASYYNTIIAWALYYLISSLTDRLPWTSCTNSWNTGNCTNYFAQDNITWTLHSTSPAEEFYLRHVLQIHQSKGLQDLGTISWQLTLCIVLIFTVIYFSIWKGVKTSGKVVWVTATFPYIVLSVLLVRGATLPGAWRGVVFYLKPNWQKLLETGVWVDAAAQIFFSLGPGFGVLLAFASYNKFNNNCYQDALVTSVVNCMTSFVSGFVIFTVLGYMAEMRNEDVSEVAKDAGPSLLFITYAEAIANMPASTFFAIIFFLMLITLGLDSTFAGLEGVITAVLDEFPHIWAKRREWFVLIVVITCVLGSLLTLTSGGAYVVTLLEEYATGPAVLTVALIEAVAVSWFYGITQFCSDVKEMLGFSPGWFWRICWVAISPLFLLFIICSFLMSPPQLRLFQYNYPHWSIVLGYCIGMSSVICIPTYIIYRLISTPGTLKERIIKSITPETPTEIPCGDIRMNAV

For the assay, the target named is rSERT (Rattus norvegicus, UniProt P31652). The assay can be described thus: [3H]5-HT uptake inhibition in rat brain synaptosomes.

For `COC(=O)[C@H]1[C@@H](OC(=O)c2ccccc2)C[C@@H]2CC[C@H]1N2C` [Cocaine], half-maximal inhibition (IC50) required 263 nM.
